The values that follow are results of earlier work, collected in patent publication US20140220152A1, “Compositions and Methods for Detecting, Treating, or Preventing Reductive Stress” (University of Utah Research Foundation, priority 2007, published 2014).

The subject of this data set is human fibrinogen. The note with it: in vitro.

Take “Human serum albumin: serum albumin; thirty-four out of thirty-five cysteines exist as oxidized disulfides”: the “hydroxy radical-induced aggregation of human fibrinogen” value is given as “prevents”.
